Usually Ki stands for a dissociation constant, usually derived from enzyme kinetics or from competition with a known ligand.

The chains behind the UniProt entries cited, without tags or fusion partners. Where a name states a change or a piece, a line headed by the entry shows the natural chain unless it says otherwise.
UniProt P25099, whole entry: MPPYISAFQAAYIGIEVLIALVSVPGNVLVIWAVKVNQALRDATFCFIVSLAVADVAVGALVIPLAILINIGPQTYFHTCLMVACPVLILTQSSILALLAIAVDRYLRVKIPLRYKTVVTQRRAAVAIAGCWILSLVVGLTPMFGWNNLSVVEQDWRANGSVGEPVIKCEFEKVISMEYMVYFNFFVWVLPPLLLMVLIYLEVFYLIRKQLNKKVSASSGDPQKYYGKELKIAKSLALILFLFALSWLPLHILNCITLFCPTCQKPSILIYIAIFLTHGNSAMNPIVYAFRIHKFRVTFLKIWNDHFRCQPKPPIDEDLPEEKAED
UniProt P30543, whole entry: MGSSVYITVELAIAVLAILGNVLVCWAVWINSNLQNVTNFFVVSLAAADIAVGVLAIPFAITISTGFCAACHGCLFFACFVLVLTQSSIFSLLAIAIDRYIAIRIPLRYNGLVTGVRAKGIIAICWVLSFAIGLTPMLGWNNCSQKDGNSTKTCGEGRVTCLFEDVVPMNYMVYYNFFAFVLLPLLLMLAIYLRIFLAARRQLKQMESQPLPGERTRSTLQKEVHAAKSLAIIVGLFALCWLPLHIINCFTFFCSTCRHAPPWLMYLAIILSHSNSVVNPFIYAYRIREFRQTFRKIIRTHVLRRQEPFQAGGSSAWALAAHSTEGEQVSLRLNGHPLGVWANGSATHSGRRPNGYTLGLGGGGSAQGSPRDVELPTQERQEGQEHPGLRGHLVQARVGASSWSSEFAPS

The source of these data is US20050107611A1, “Pyrazolyl-substituted triazoloquinoxalines” (priority 2001, published 2005).

The target of one assay is A1 adenosine receptor (Rattus norvegicus, UniProt P25099). The note with it: read-out: A1 Ki; cited from earlier work.
Assay [1] has as its system A2A adenosine receptor. In words: A2A adenosine receptor affinity from the literature (Matuszczak et al. 1998). The format is binding. The settings on record: A2A over A1.
Assay [2] concerns the target A2A adenosine receptor (Rattus norvegicus, UniProt P30543). The settings on record: read-out: A2A Ki; cited from earlier work.

As for `Cc1nnc2c(-c3cc(Cl)n[nH]3)nc3ccccc3n12`, the inhibition constant (Ki) at A1 adenosine receptor is 7.85 µM; on A2A adenosine receptor [2], 1.43 µM. Besides, the selectivity factor entry in the assay on A2A adenosine receptor [1] is given as “about 5”.
